In PMC9723548, “Sulfate adenylyl transferase kinetics and mechanisms of metabolic inhibitors of microbial sulfate respiration” (ISME Communications, 2021) one finds Km data, which are given here for two compounds.

Chains of the proteins cited; added tags and fusions are not shown. Residues count along the entry.
UniProt Q30Z34, 1-427: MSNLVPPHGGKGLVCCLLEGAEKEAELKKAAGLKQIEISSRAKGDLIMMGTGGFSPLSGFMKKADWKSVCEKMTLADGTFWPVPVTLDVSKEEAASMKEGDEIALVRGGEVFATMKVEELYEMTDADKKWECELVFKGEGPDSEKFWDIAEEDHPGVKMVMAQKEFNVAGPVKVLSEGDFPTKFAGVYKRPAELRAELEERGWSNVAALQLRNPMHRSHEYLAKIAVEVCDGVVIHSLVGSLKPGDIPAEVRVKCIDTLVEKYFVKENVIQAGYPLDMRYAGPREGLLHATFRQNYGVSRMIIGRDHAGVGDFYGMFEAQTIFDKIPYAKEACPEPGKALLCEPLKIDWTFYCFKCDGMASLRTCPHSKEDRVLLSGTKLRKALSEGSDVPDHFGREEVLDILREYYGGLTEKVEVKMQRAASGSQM

The target in this assay is sulfate adenylyl transferase (Sat) / ATP sulfurylase (Oleidesulfovibrio alaskensis, UniProt Q30Z34). Kind of assay: pyrophosphate accumulation, modified molybdenum blue assay. The note with it: read-out: KM (mM) / KI-Varied ATP; alternative substrate in place of sulfate; co-substrate ATP.

The structures appear in SMILES notation.

For `O=[As](O)(O)O`, the Km turned out to be 0.0617 mM.
As to `O=P(O)(O)F`, the Km worked out at 1.44 mM.
